# Molecular target: human c-FMS (Homo sapiens, UniProt P07333)
# Sequences of proteins named here, by UniProt entry; tags and fusion partners are left off. Residues count along the entry.
# UniProt P07333, 20-512: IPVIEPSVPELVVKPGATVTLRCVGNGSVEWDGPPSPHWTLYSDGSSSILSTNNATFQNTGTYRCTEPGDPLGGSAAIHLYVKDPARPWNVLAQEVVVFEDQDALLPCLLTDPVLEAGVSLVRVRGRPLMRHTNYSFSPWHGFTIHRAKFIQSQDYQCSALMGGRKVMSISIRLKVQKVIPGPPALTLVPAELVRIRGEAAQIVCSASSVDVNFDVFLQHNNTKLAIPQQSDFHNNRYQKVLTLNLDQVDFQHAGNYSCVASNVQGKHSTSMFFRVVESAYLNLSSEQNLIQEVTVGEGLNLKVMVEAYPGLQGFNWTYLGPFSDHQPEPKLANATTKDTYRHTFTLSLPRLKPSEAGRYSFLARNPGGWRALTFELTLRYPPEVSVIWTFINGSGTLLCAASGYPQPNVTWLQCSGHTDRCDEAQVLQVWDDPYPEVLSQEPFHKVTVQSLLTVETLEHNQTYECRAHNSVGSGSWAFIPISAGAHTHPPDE
# Assay: SPR of immobilized purified proteins against soluble c-FMS (ProteOn XPR36)
# Format: binding
# Design: Soluble human c-FMS receptor (extracellular domains, residues Met1-Glu512) (Sino Biological, China); purchased Sino Biological
# Settings: c-FMS 0-200 nM, equilibrium
# Description: Determination of binding of the soluble purified proteins (M-CSFM and M-CSFRGD variants) to c-FMS and αvβ3 integrin was performed on a ProteOn XPR36 (Bio-Rad, USA). The M-CSFRGD, M-CSFM and M-CSFαvβ3 protein variants were immobilized on the surface of the chip by using the amine coupling reagents sulfo-NHS (0.1 M N-hydroxysuccinimide) and EDC (0.4 M 1-ethyl-3-(3 dimethylaminopropyl)-carbodiimide), Bio-Rad, USA). To attach the M-CSFRGD, M-CSFM and M-CSFαvβ3 variants covalently to the chip, 1 μg of each protein and 3 μg of BSA in 10 mM sodium acetate buffer, pH 4.0, were used to give 474, 900 1329, 1272 and 1337 response units (RU) for M-CSFM, M-CSFαvβ3 4.22, 4.24 and 5.6 respectively. Unbound esters were deactivated with 1 M ethanolamine HCl at pH 8.5, and the temperature was set at 25° C. Then, the chip was rotated, and the human c-FMS soluble proteins (Sino Biological, China) were allowed to flow over the chip at 6 different concentrations (0, 12.5, 25, 50, 100 and 200 nM) at a flow rate of 50 μl/min for 490 s, followed by dissociation for 600 s in PBS+0.005% Tween (PBST). For determining αvβ3 integrin binding, the chip was regenerated using 50 mM NaOH at a flow rate of 100 μl/min and analyzed again for c-FMS binding to make sure that the chip had been regenerated. […]
molecule,measurement,value
"M-CSFαvβ3: variant 4.22 with histidine to alanine mutations at positions 9 and 15; binds αvβ3 integrin but not c-FMS (protein, left off: small tags and cut ends) EEVSEYCSAMIGSGALQSLQRLIDQTSRGDSPSITFEFVDQEQLKDPVCYLKKAFLLVQDIMEDTMRFRDNTPNAIAIVQLQELSLRLKSCFTKDYEEHDKACVRTFYETPLQLLEKVKNVFNETKNLLDKDWNIFSKNCNNSFAECSSQGHERQSEGS",KD to c-FMS,didn't show any binding

# From patent US11976099B2, “Compositions and methods for treatment of bone associated diseases” (THE NATIONAL INSTITUTE FOR BIOTECHNOLOGY IN THE NEGEV LTD., priority 2016, dated 2024)
